From patent US6936585B2, “Corticotropin releasing factor 2 receptor agonists” (priority 2002, dated 2005)
pEC50: −log10 of the molar value.

How the values were obtained:
CRF1R = target: T1, CRF1R (Homo sapiens, UniProt P34998); assay: CRF1R agonist activation (EC50 / Emax), called comparative CRF binding; format: cell-based; settings: for pEC50: CRF1R EC50; for Emax: read-out: CRF1R Emax
T1 sequence (P34998 24-415): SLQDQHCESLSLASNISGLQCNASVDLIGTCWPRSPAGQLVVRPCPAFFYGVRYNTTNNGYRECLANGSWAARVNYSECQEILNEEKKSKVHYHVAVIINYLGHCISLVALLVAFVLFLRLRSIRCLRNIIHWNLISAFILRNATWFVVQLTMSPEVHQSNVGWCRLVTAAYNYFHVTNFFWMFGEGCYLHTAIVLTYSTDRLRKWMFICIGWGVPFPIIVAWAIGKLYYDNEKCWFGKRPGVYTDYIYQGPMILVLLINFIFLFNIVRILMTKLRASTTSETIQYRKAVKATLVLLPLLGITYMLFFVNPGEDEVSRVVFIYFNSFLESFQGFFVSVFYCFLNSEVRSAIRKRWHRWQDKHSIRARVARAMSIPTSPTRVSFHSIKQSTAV
Procedure, shortened: (§1)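 Cells expressing human CRF1R or CRF2R are exposed to peptide or vehicle control, and receptor activation is read as cAMP induction, measured in cell lysates or via a CRE-linked reporter gene.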

CRF2R = target: T2, CRF2R (Homo sapiens, UniProt Q13324); assay: CRF2R agonist activation (EC50 / Emax), called comparative CRF binding; format: cell-based; settings: for Emax: read-out: CRF2R Emax
T2 sequence (Q13324 1-411): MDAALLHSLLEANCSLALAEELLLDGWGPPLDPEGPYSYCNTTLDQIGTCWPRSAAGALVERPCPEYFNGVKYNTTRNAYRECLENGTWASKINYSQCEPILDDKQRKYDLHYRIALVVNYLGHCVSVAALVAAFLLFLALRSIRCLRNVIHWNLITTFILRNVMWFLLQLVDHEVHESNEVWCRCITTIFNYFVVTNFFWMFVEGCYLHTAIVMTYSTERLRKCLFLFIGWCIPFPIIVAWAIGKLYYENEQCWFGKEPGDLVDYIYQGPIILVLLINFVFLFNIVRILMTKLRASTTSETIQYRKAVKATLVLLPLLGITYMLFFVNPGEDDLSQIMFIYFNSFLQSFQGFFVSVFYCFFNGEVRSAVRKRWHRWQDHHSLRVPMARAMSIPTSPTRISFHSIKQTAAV
Procedure, shortened: as §1

Row | Structure (SMILES) | pEC50 (CRF1R) | Emax (CRF1R) [%] | pEC50 (CRF2R) | Emax (CRF2R) [%]
1 | CC[C@H](C)[C@H](NC(=O)[C@@H](NC(=O)[C@H](CC(=O)O)NC(=O)[C@H](CC(C)C)NC(=O)[C@H](CC(C)C)NC(=O)[C@H](CC(C)C)NC(=O)[C@H](C)NC(=O)[C@H](CC(N)=O)NC(=O)[C@H](CC(N)=O)NC(=O)[C@H](C)NC(=O)[C@H](C)NC(=O)[C@H](CCC(N)=O)NC(=O)[C@H](CCC(N)=O)NC(=O)[C@H](CCCCN)NC(=O)[C@H](CCC(=O)O)NC(=O)[C@H](CCCCN)NC(=O)[C@H](CCC(=O)O)NC(=O)[C@H](CCC(N)=O)NC(=O)[C@H](CCCCN)NC(=O)[C@H](CCC(=O)O)NC(=O)[C@@H](NC(=O)[C@H](CCC(=O)O)NC(=O)[C@@H](NC(=O)[C@H](CCSC)NC(=O)[C@H](CCCCN)NC(=O)[C@H](CCCNC(=N)N)NC(=O)[C@H](CC(C)C)NC(=O)[C@H](CC(C)C)NC(=O)[C@H](CCC(=O)O)NC(=O)[C@H](CC(C)C)NC(=O)[C@@H]1CCCN1C(=O)[C@H](CC(C)C)NC(=O)[C@H](CC(=O)O)NC(=O)[C@@H](NC(=O)[C@H](CO)NC(=O)[C@@H](NC(=O)[C@@H]1CCCN1C(=O)[C@@H]1CCCN1C(=O)CNC(=O)[C@@H]1CCC(=O)N1)[C@@H](C)CC)[C@@H](C)CC)[C@@H](C)CC)[C@@H](C)CC)[C@@H](C)O)C(N)=O [compound 235] | 6.09 | 70 | 7.59 | 100
2 | CC[C@H](C)[C@H](NC(=O)[C@@H](NC(=O)[C@H](CC(=O)O)NC(=O)[C@H](CC(C)C)NC(=O)[C@H](CC(C)C)NC(=O)[C@H](CC(C)C)NC(=O)[C@H](CCCNC(=N)N)NC(=O)[C@H](CC(N)=O)NC(=O)[C@H](CC(N)=O)NC(=O)[C@H](C)NC(=O)[C@H](C)NC(=O)[C@H](CCC(N)=O)NC(=O)[C@H](CCC(N)=O)NC(=O)[C@H](CCCCN)NC(=O)[C@H](CCC(=O)O)NC(=O)[C@H](CCCCN)NC(=O)[C@H](CCC(=O)O)NC(=O)[C@H](CCC(N)=O)NC(=O)[C@H](CCCCN)NC(=O)[C@H](CCC(=O)O)NC(=O)[C@@H](NC(=O)[C@H](CCC(=O)O)NC(=O)[C@@H](NC(=O)[C@H](CCSC)NC(=O)[C@H](CCCCN)NC(=O)[C@H](CCCNC(=N)N)NC(=O)[C@H](CC(C)C)NC(=O)[C@H](CC(C)C)NC(=O)CNC(=O)[C@@H](NC(=O)[C@@H]1CCCN1C(=O)[C@H](CC(C)C)NC(=O)[C@H](CC(=O)O)NC(=O)[C@@H](NC(=O)[C@H](CO)NC(=O)[C@@H](NC(=O)[C@@H]1CCCN1C(=O)[C@@H]1CCCN1C(=O)CNC(=O)[C@@H]1CCC(=O)N1)[C@@H](C)CC)[C@@H](C)CC)[C@@H](C)O)[C@@H](C)CC)[C@@H](C)CC)[C@@H](C)O)C(N)=O [compound 73] |  | 11 |  | 11
3 | CC[C@H](C)[C@H](NC(=O)[C@@H](NC(=O)[C@H](CC(=O)O)NC(=O)[C@H](CC(C)C)NC(=O)[C@H](CC(C)C)NC(=O)[C@H](CC(C)C)NC(=O)[C@H](CCCNC(=N)N)NC(=O)[C@H](CC(N)=O)NC(=O)[C@H](CC(N)=O)NC(=O)[C@H](C)NC(=O)[C@H](C)NC(=O)[C@H](CCC(N)=O)NC(=O)[C@H](CCC(N)=O)NC(=O)[C@H](CCCCN)NC(=O)[C@H](CCC(=O)O)NC(=O)[C@H](CCCCN)NC(=O)[C@H](CCC(=O)O)NC(=O)[C@H](CCC(N)=O)NC(=O)[C@H](CCCCN)NC(=O)[C@H](CCC(=O)O)NC(=O)[C@@H](NC(=O)[C@H](CCC(=O)O)NC(=O)[C@@H](NC(=O)[C@H](CCSC)NC(=O)[C@H](CCCCN)NC(=O)[C@H](CCCNC(=N)N)NC(=O)[C@H](CC(C)C)NC(=O)[C@H](CC(C)C)NC(=O)[C@H](CO)NC(=O)[C@@H](NC(=O)[C@@H]1CCCN1C(=O)[C@H](CC(C)C)NC(=O)[C@H](CC(=O)O)NC(=O)[C@@H](NC(=O)[C@H](CO)NC(=O)[C@@H](NC(=O)[C@@H]1CCCN1C(=O)[C@@H]1CCCN1C(=O)CNC(=O)[C@@H]1CCC(=O)N1)[C@@H](C)CC)[C@@H](C)CC)[C@@H](C)CC)[C@@H](C)CC)[C@@H](C)CC)[C@@H](C)O)C(N)=O [compound 53] |  | 19 |  | 95
4 | CC[C@H](C)[C@H](NC(=O)[C@H](CCC(=O)O)NC(=O)[C@@H](NC(=O)[C@H](CCSC)NC(=O)[C@H](CCCCN)NC(=O)[C@H](CCC(=O)O)NC(=O)[C@H](CC(C)C)NC(=O)[C@H](CC(C)C)NC(=O)[C@H](CCC(N)=O)NC(=O)[C@H](CC(C)C)NC(=O)[C@@H]1CCCN1C(=O)[C@H](CC(C)C)NC(=O)[C@H](CC(=O)O)NC(=O)[C@@H](NC(=O)[C@H](CO)NC(=O)[C@@H](NC(=O)[C@@H]1CCCN1C(=O)[C@@H]1CCCN1C(=O)CNC(=O)[C@@H]1CCC(=O)N1)[C@@H](C)CC)[C@@H](C)CC)[C@@H](C)CC)C(=O)N[C@@H](CCC(=O)O)C(=O)N[C@@H](CCCCN)C(=O)N[C@@H](CCC(N)=O)C(=O)N[C@@H](CCC(=O)O)C(=O)N[C@@H](CCCCN)C(=O)N[C@@H](CCC(=O)O)C(=O)N[C@@H](CCCCN)C(=O)N[C@@H](CCC(N)=O)C(=O)N[C@@H](CCC(N)=O)C(=O)N[C@@H](C)C(=O)N[C@H](C(=O)N[C@H](C(=O)N[C@@H](CC(N)=O)C(=O)N[C@@H](C)C(=O)N[C@@H](CCCNC(=N)N)C(=O)N[C@@H](CC(C)C)C(=O)N[C@@H](CC(C)C)C(=O)N[C@@H](CC(=O)O)C(=O)N[C@@H](CCCNC(=N)N)C(=O)N[C@H](C(N)=O)C(C)C)[C@@H](C)O)[C@@H](C)O [compound 247] | ≤ 6.00 | 34 | 7.73 | 100
5 | CC[C@H](C)[C@H](NC(=O)[C@@H](NC(=O)[C@H](CC(=O)O)NC(=O)[C@H](CC(C)C)NC(=O)[C@H](CC(C)C)NC(=O)[C@H](CC(C)C)NC(=O)[C@H](CCCNC(=N)N)NC(=O)[C@H](CC(N)=O)NC(=O)[C@H](CC(N)=O)NC(=O)[C@H](C)NC(=O)[C@H](C)NC(=O)[C@H](CCC(N)=O)NC(=O)[C@H](CCC(N)=O)NC(=O)[C@H](CCCCN)NC(=O)[C@H](CCC(=O)O)NC(=O)[C@H](CCCCN)NC(=O)[C@H](CCC(=O)O)NC(=O)[C@H](CCC(N)=O)NC(=O)[C@H](CCCCN)NC(=O)[C@H](CCC(=O)O)NC(=O)[C@@H](NC(=O)[C@H](CCC(=O)O)NC(=O)[C@@H](NC(=O)[C@H](CCSC)NC(=O)[C@H](CCCCN)NC(=O)[C@H](CCCNC(=N)N)NC(=O)[C@H](CC(C)C)NC(=O)[C@H](CC(C)C)NC(=O)[C@H](Cc1c[nH]c2ccccc12)NC(=O)[C@H](Cc1ccc(O)cc1)NC(=O)[C@@H]1CCCN1C(=O)[C@H](CC(C)C)NC(=O)[C@H](CC(=O)O)NC(=O)[C@@H](NC(=O)[C@H](CO)NC(=O)[C@@H](NC(=O)[C@@H]1CCCN1C(=O)[C@@H]1CCCN1C(=O)CNC(=O)[C@@H]1CCC(=O)N1)[C@@H](C)CC)[C@@H](C)CC)[C@@H](C)CC)[C@@H](C)CC)[C@@H](C)O)C(N)=O [compound 215] | 6.73 | 100 | 8.40 | 100
6 | CC[C@H](C)[C@H](NC(=O)[C@@H](NC(=O)[C@H](CC(=O)O)NC(=O)[C@H](CC(C)C)NC(=O)[C@H](CC(C)C)NC(=O)[C@H](CC(C)C)NC(=O)[C@H](CCCNC(=N)N)NC(=O)[C@H](CC(N)=O)NC(=O)[C@H](CC(N)=O)NC(=O)[C@H](C)NC(=O)[C@H](C)NC(=O)[C@H](CCC(N)=O)NC(=O)[C@H](CCC(N)=O)NC(=O)[C@H](CCCCN)NC(=O)[C@H](CCC(=O)O)NC(=O)[C@H](CCCCN)NC(=O)[C@H](CCC(=O)O)NC(=O)[C@H](CCC(N)=O)NC(=O)[C@H](CCCCN)NC(=O)[C@H](CCC(=O)O)NC(=O)[C@@H](NC(=O)[C@H](CCC(=O)O)NC(=O)[C@@H](NC(=O)[C@H](CCSC)NC(=O)[C@H](CCCCN)NC(=O)[C@H](CCCNC(=N)N)NC(=O)[C@H](CC(C)C)NC(=O)[C@H](CC(C)C)NC(=O)[C@H](Cc1ccc(O)cc1)NC(=O)[C@H](CCCNC(=N)N)NC(=O)[C@@H]1CCCN1C(=O)[C@H](CC(C)C)NC(=O)[C@H](CC(=O)O)NC(=O)[C@@H](NC(=O)[C@H](CO)NC(=O)[C@@H](NC(=O)[C@@H]1CCCN1C(=O)[C@@H]1CCCN1C(=O)CNC(=O)[C@@H]1CCC(=O)N1)[C@@H](C)CC)[C@@H](C)CC)[C@@H](C)CC)[C@@H](C)CC)[C@@H](C)O)C(N)=O [compound 65] | < 7.00 | 16 | 7.17 | 64
